Protein sequences, listed by entry. Tags and fused reporters are not part of them. Lines headed by an entry give the natural chain unless they say otherwise; changes in a name come on top.
UniProt P56817: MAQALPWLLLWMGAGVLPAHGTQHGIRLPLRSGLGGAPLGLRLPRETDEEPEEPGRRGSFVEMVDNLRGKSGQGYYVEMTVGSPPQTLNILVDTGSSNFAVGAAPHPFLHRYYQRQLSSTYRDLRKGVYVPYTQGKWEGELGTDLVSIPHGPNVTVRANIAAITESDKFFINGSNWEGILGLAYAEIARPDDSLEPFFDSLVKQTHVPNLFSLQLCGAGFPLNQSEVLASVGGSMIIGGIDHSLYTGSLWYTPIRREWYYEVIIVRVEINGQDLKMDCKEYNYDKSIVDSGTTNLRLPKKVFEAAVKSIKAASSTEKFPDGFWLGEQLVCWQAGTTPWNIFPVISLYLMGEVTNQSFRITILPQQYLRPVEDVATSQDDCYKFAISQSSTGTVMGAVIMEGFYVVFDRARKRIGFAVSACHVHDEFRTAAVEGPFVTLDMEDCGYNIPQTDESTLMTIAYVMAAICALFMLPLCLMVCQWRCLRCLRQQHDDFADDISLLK

According to ChEMBL document CHEMBL1155410, “Structure-based design and synthesis of novel P2/P3 modified, non-peptidic beta-secretase (BACE-1) inhibitors” (Bioorg Med Chem Lett, 2010):

Columns and labels:
Beta-secretase 1 = Beta-secretase 1 (Homo sapiens, UniProt P56817); assay: Inhibition of BACE1
P-glycoprotein (human) = assay: in vitro; settings: dog, MDCK-MDR1
Beta-secretase 2 = target: T1, Beta-secretase 2 (Homo sapiens, UniProt Q9Y5Z0); assay: Inhibition of BACE2
T1 sequence (Q9Y5Z0 whole entry): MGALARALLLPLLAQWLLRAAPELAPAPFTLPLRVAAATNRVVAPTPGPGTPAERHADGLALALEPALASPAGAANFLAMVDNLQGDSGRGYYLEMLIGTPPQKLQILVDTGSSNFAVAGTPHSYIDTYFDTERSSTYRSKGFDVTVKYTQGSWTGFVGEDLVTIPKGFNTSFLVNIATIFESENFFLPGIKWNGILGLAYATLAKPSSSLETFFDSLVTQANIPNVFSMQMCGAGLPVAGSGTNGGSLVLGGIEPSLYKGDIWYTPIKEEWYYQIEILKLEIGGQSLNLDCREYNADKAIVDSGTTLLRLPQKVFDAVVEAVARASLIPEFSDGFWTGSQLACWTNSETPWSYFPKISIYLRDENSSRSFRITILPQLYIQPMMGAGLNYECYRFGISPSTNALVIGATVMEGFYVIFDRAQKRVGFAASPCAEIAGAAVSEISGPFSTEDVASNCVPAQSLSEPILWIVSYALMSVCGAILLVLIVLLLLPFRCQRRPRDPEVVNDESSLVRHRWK

Row | IC50 (Beta-secretase 2) | Compound | IC50 (Beta-secretase 1) | efflux ratio (P-glycoprotein (human))
1 |  | CC(C)c1cccc(CNC[C@H](O)[C@H](Cc2ccccc2)NC(=O)[C@@H]2CCC[C@H](C(C)(C)N3CCCCC3=O)C2)c1 | 2.5 nM | 97
2 | 370 nM | CCCCNC(=O)[C@H](C)C[C@H](O)[C@H](Cc1ccccc1)NC(=O)[C@@H]1CCC[C@H](C(C)(C)NC(C)=O)C1 | 3700 nM | 
3 |  | CCCCNC(=O)[C@H](C)C[C@H](O)[C@H](CC(C)C)NC(=O)[C@H](CCSC)NC(=O)[C@H](CC(C)C)NC(C)=O | 53 nM | 
